The entries are a selection whose mix differs from that of the whole data set. Inconclusive results are not listed. The source made the active and inactive calls. Calls follow the shape of the dose curve; as a rule, active = well fitted inhibition curve with a large enough effect; inconclusive = small, poorly fitted or top-dose-only effect; inactive = flat fitted curve, though single readings scatter.
% is scaled to controls: 0 for no effect and ±100 for the full control effect; potency is read from the fitted curve at half-maximal effect.

Sequences of proteins named here, by UniProt entry; tags and fusion partners are left off.
UniProt P53350, whole entry, looked up: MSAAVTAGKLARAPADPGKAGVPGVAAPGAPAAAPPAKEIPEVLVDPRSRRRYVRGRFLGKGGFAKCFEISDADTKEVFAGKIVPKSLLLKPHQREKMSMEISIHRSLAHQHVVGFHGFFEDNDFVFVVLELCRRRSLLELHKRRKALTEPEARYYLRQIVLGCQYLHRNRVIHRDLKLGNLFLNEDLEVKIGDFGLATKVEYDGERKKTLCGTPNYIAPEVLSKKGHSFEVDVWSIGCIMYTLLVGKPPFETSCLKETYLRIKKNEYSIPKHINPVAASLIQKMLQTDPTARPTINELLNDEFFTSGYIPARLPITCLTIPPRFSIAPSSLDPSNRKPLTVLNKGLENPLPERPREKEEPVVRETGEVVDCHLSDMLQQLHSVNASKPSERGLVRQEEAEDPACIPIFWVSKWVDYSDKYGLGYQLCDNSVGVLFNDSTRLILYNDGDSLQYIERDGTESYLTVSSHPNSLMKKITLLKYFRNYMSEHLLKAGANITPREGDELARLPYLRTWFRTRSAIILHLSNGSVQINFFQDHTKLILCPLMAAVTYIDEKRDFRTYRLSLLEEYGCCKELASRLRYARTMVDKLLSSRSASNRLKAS

This test has as its target Serine/threonine-protein kinase PLK1 (Homo sapiens) (UniProt P53350). As to the kind of experiment: qHTS for Inhibitors of PLK1-PDB (polo-like kinase 1 - polo-box domain): Primary Screen. Also: nearly all actives have a fitted effect of over 65% in size. As to max response, negative = inhibition: series mostly up to about 57 µM. As to conditions: Plk1 PBD binding of FITC phosphopeptide, fluorescence polarization. Background: qHTS replaces the single test concentration by a dilution series.
As to `NC(=O)c1cc([N+](=O)[O-])cc([N+](=O)[O-])c1N`, the max response, negative = inhibition was inactive: -9.52%.
As for `Cc1ccc(N/C(=N/P(=O)(N2CCOCC2)N2CCOCC2)N2CCOCC2)cc1`, the max response, negative = inhibition was inactive: -7.9%.
Turning to `CN(C(=O)Cc1ccc(Cl)c(Cl)c1)[C@H]1CCCC[C@H]1N1CCCC1`, the max response, negative = inhibition was inactive: -6.95%.
On to `Cc1ccc(OP(=O)(Nc2nccs2)Oc2ccc(C)cc2)cc1`, for which the max response, negative = inhibition was inactive: 2.14%.
`COc1ccccc1OP(=O)(Nc1ccc(C)cn1)Oc1ccccc1OC`: the max response, negative = inhibition is inactive: -12.7%.
`CN1CCCC(OC(=O)C(c2ccccc2)c2ccccc2)C1` (stereo unspecified): the max response, negative = inhibition was inactive: -7.73%.
For the compound `Nc1cc(N)c2nonc2c1[N+](=O)[O-]`, the max response, negative = inhibition is inactive: 3.57%.
Still for that read-out and setting: next, `CC(C)CC(=O)NC(Sc1ccc(Cl)cc1)C(Cl)(Cl)Cl` (stereo unspecified): inactive: -10.2%.
On to `O=C(NC(Sc1ccncn1)C(Cl)(Cl)Cl)c1ccccc1` (stereo unspecified), for which the Potency was active: 11.9 µM.
With `Oc1ccccc1CNc1ccccn1`, the max response, negative = inhibition was inactive: 1.22%.
The same measure, in the same setting: under `O=[N+]([O-])C1C(O)C(O)C([N+](=O)[O-])C(O)C1O` (stereo unspecified) stands inactive: -2.97%.
Same read-out and setting: next, `CCCC1OP(N)(=O)OCC1CC` (stereo unspecified): inactive: 1.05%; `O=C(O)c1ccccc1[As](=O)(O)O`: inactive: -22.1%; `O=P(Nc1nc2ccc(Cl)cc2s1)(c1ccccc1)c1ccccc1`: inactive: -15.6%.
Still for that read-out and setting: next, `CN(C)P(=O)(N(C)C)n1c(Nc2ccccc2)nnc1-c1ccccc1`: inactive: -9.07%; `CN(C(=O)Cc1ccc(Cl)c(Cl)c1)[C@H]1CCCC[C@@H]1N1CCCC1`: inactive: -4.08%; `Cc1ccc(NP(=O)(Oc2ccccc2F)Oc2ccccc2F)nc1`: inactive: -8%.
As to `Cc1cc(SC(NC(=O)c2ccc(F)cc2)C(Cl)(Cl)Cl)ncn1` (stereo unspecified), the Potency is active: 26.7 µM.
Consider `CCOP(=O)(Nc1ccccc1)OCC`, for which the max response, negative = inhibition is inactive: -0.773%.
Regarding `CCN(N=Nc1nonc1N)c1nonc1N`, the max response, negative = inhibition was inactive: -3.09%.
For the compound `Nc1cccc2ccc([As](=O)(O)O)cc12`, the max response, negative = inhibition is inactive: -8.11%.
On to `O=P1(N(CCCl)CCCl)OCCCS1` (stereo unspecified), for which the max response, negative = inhibition is inactive: -3.49%.
With `O=C(Nc1cc([As](=O)(O)O)ccc1O)c1ccccc1`, the max response, negative = inhibition is inactive: -9.17%.
With `CC(C)(C)C(=O)NC(Sc1ccncn1)C(Cl)(Cl)Cl` (stereo unspecified), the Potency was active: 11.9 µM.
With `O=[N+]([O-])c1ncn(CCn2ncnc2[N+](=O)[O-])n1`, the max response, negative = inhibition was inactive: 2.22%.
Turning to `COC(=O)C1(C)COP(=O)(Nc2ccccc2)OC1` (stereo unspecified), the max response, negative = inhibition is inactive: -4.66%.
Regarding `O=[N+]([O-])c1cccc(NC2=NCC(CBr)S2)c1` (stereo unspecified), the Potency was active: 11.9 µM.
Regarding `O=C(O)CNc1ccc([As](=O)(O)O)cc1`, the max response, negative = inhibition was inactive: -6.05%.
For the compound `CC(=O)N1C2C3N(C(C)=O)C1C1N(C(C)=O)C(C(N1C(C)=O)N3C(C)=O)N2C(C)=O`, the max response, negative = inhibition is inactive: -7.07%.
In the case of `O=[N+]([O-])c1cccc2n[nH]nc12`, the max response, negative = inhibition was inactive: -10.9%.
For `O=[N+]([O-])c1cc([N+](=O)[O-])c(CCNc2ccccc2)c([N+](=O)[O-])c1`, the max response, negative = inhibition is inactive: -17.2%.
In the case of `CCc1nc2c(n1)c1c(non1O)c1c2no[n+]1[O-]`, the max response, negative = inhibition is inactive: -1.62%.
Turning to `Cc1ccc(NP(=O)(Oc2ccccc2)Oc2ccccc2)nc1`, the max response, negative = inhibition was inactive: -2.88%.
On to `Nc1ccc([As](=O)(O)c2ccc(N)cc2)cc1`, for which the max response, negative = inhibition is inactive: 6.46%.
Still for that read-out and setting: next, `CCN(/C(=N/P(=O)(N1CCOCC1)N1CCOCC1)N1CCOCC1)c1ccc(OC)cc1`: inactive: -2.92%.
Regarding `CN(C)C(=O)OCCc1n(C)cc[n+]1C`, the max response, negative = inhibition was inactive: 4.69%.
As to `CC(C)c1nc(Nc2ccccc2)n(P(=O)(N(C)C)N(C)C)n1`, the max response, negative = inhibition was inactive: -0.07%.
Regarding `CC(C)=N/N=C(\N)N[N+](=O)[O-]`, the max response, negative = inhibition is inactive: 1.83%.
Consider `CC1CCN(C(=O)Oc2c(Cl)cc(Cl)c3cccnc23)CC1`, for which the max response, negative = inhibition is inactive: 1.46%.
Regarding `c1cc(-c2nn[nH]n2)ccc1-c1nn[nH]n1`, the max response, negative = inhibition is inactive: -3.71%.
The same measure, in the same setting: next, `O=P(Nc1nccs1)(c1ccccc1)c1ccccc1`: inactive: -1.57%; `CC(C)C(=O)NC(Sc1ccccc1)C(Cl)(Cl)Cl` (stereo unspecified): inactive: -4.49%.
Still for that read-out and setting: under `c1nnnn1CCn1cnnn1` stands inactive: -2.87%; under `COc1ccc(N)c([N+](=O)[O-])c1[N+](=O)[O-]`, inactive: -29.1%.
On the same count and under the same terms, next, `Nc1ccc(CCCCOc2ccccc2)cc1`: inactive: -9.93%.
Turning to `CN(C)C1(CNC(=O)c2ccc(Cl)c(S(N)(=O)=O)c2)CCCCC1`, the max response, negative = inhibition was inactive: 3.23%.
On to `O=P(Nc1ccccn1)(c1ccc(Br)cc1)c1ccc(Br)cc1`, for which the max response, negative = inhibition is inactive: -4.79%.
`C[C@H]1OP(=O)(Oc2ccccc2)[C@H](O)[C@H](O)[C@H]1N=[N+]=[N-]` (stereo partly specified): the max response, negative = inhibition is inactive: -13.6%.
The same measure, in the same setting: next, `O=P(Nc1nc2ccccc2s1)(c1ccccc1)c1ccccc1`: inactive: -27.5%.
Turning to `O=[N+]([O-])c1ncn(CCn2cnc([N+](=O)[O-])n2)n1`, the max response, negative = inhibition was inactive: -13%.
`O=[N+]([O-])c1ccc(O)c(/C=N/Nc2ccc([N+](=O)[O-])cc2[N+](=O)[O-])c1`: the max response, negative = inhibition was inactive: -28.7%.
Regarding `O=[As](O)(c1ccccc1)c1ccc(O)cc1`, the max response, negative = inhibition is inactive: 1.76%.
Same read-out and setting: under `C(Cc1nn[nH]n1)Cc1nn[nH]n1` stands inactive: -7.8%; under `Nc1ccc([As](=O)(O)c2ccc([N+](=O)[O-])cc2)cc1`, inactive: -9.15%; under `O=C(OC1CN2CCC1CC2)c1cccc(Cl)c1` (stereo unspecified), inactive: -0.591%.
Still for that read-out and setting: next, `O=C(NC1CCS(=O)(=O)C1)NP(=S)(Oc1ccccc1)Oc1ccccc1` (stereo unspecified): inactive: -9.23%; `CCNC(=S)/N=C(\N)N[N+](=O)[O-]`: inactive: 4.04%; `Cc1ccc(NP(=O)(Oc2cccc(C)c2)Oc2cccc(C)c2)nc1`: inactive: 2.61%.
In the case of `c1ccc(-c2nn[nH]n2)c(-c2nn[nH]n2)c1`, the max response, negative = inhibition is inactive: -10.5%.
`O=P1(N(CCCl)CCCl)OCCC2CCCCN21` (stereo unspecified): the max response, negative = inhibition is inactive: -1.34%.
As to `CC(=O)NC(SC(=S)N(CC(C)C)CC(C)C)C(Cl)(Cl)Cl` (stereo unspecified), the max response, negative = inhibition is inactive: -28%.
For `Cc1ccc(OP(=O)(Nc2ccccn2)Oc2ccc(C)cc2)cc1`, the max response, negative = inhibition is inactive: -22.3%.
As to `COC(=O)c1cc2c(s1)N=C(c1ccccc1)N(C)P2(=O)N1CCOCC1` (stereo unspecified), the max response, negative = inhibition is inactive: 3.03%.
In the case of `CCC(=O)N1C2C3N(C(=O)CC)C1C1N(C(=O)CC)C(C(N1C(=O)CC)N3C(=O)CC)N2C(=O)CC`, the max response, negative = inhibition is inactive: 0.992%.
Regarding `O=C(OC1CN2CCC1CC2)c1ccccc1` (stereo unspecified), the max response, negative = inhibition was inactive: -1.08%.
Regarding `O=c1c2cc([N+](=O)[O-])ccc2[nH]c2c([N+](=O)[O-])cc([N+](=O)[O-])cc12`, the max response, negative = inhibition is inactive: -29%.
Turning to `CN(C)C(=O)Oc1noc2ccccc12`, the max response, negative = inhibition was inactive: -2.83%.
Still for that read-out and setting: under `CC(NC(=O)COC(=O)C(O)(c1ccccc1)c1ccccc1)c1ccccc1` (stereo unspecified) stands inactive: 6.83%.
As to `Cc1ccccc1OP(=O)(Nc1ccccn1)Oc1ccccc1C`, the max response, negative = inhibition is inactive: 6.02%.
Turning to `CCOc1ccc(C2=NCC(CBr)S2)cc1` (stereo unspecified), the max response, negative = inhibition was inactive: -9.15%.
On to `O=P1(Nc2nc3ccc(Cl)cc3s2)COc2ccccc2O1` (stereo unspecified), for which the max response, negative = inhibition was inactive: -6.69%.
With `CCc1cc(O)c([N+](=O)[O-])c(C)c1[N+](=O)[O-]`, the max response, negative = inhibition was inactive: -2.78%.
Take `CC(C)(C)C(=O)NC(Sc1ccccc1)C(Cl)(Cl)Cl` (stereo unspecified): the max response, negative = inhibition was inactive: -2.7%.
Regarding `COC(=O)C1(C)COP(=O)(NCc2ccccc2)OC1` (stereo unspecified), the max response, negative = inhibition was inactive: -4.03%.
As to `CC(=O)c1ccc(N2CC2c2ccncc2)cc1` (stereo unspecified), the max response, negative = inhibition was inactive: -0.0549%.
Turning to `N#C/C(=C\c1ccc(N(CCBr)CCBr)cc1)C(N)=O`, the max response, negative = inhibition was inactive: -17.2%.
The same measure, in the same setting: next, `C[C@H]1OP(=O)(Oc2ccccc2)C[C@@H]2O[C@@H]21` (stereo partly specified): inactive: 1.73%.
`C[C@@H]1C=CCP(=O)(Oc2ccccc2)O1` (stereo partly specified): the max response, negative = inhibition was inactive: -7.29%.
Take `Cc1ccccc1CN(C)C(=O)COC(=O)C(O)(c1ccccc1)c1ccccc1`: the max response, negative = inhibition is inactive: -10.2%.
With `CC(=O)Nc1ccc(Oc2c([N+](=O)[O-])cc([N+](=O)[O-])cc2[N+](=O)[O-])cc1`, the Potency is active: 11.9 µM.
For `CC(=O)Nc1ccc([As](=O)(O)O)c(O)c1`, the max response, negative = inhibition was inactive: 5.05%.
The same measure, in the same setting: next, `CS(=O)(=O)c1ccc(Cl)c(NC(=O)COC(=O)C(O)(c2ccccc2)c2ccccc2)c1`: inactive: -2.7%; `O=[As](O)(O)c1cccnc1`: inactive: -4.85%; `COc1cc(C(=O)NCC2(N3CCOCC3)CCCCC2)cc(Cl)c1OC(C)C`: inactive: -8.46%.
Still for that read-out and setting: next, `O=C(OC1CN2CCC1CC2)c1ccc(Cl)cc1` (stereo unspecified): inactive: -4.71%; `Cc1cccc(OCC(=O)OC2CN3CCC2CC3)c1` (stereo unspecified): inactive: -16.6%.
Still for that read-out and setting: under `O=[As](O)(c1cccc(O)c1)c1cccc(O)c1` stands inactive: 4.28%; under `CCCOP(=S)(Nc1nc(N)cc(=O)[nH]1)OCCC`, inactive: 1.67%; under `Cc1ccc(NCCc2c([N+](=O)[O-])cc([N+](=O)[O-])cc2[N+](=O)[O-])cc1`, inactive: -18%.
For `CCOP(=O)(Nc1cccc2ccccc12)OCC`, the max response, negative = inhibition was inactive: -13.5%.
Turning to `COc1cc(C2NCCC3(OCCO3)C2(C)C)cc(OC)c1OC` (stereo unspecified), the max response, negative = inhibition was inactive: 2.17%.
Consider `CS(=O)(=O)c1cc([N+](=O)[O-])c2no[n+]([O-])c2c1`, for which the Potency is active: 1.5 µM.
On to `O=P(Nc1nccs1)(Oc1ccccc1)Oc1ccccc1`, for which the max response, negative = inhibition is inactive: -7.42%.
For the compound `O=P(Nc1nccs1)(c1ccccc1)c1nc2ccccc2s1` (stereo unspecified), the Potency is active: 0.336 µM.
Consider `CCOP1(=S)c2c(C)nn(CCC#N)c2N=C(c2ccccc2F)N1C` (stereo unspecified), for which the max response, negative = inhibition was inactive: -9.62%.
As to `O=C(O)COc1ccc([As](=O)(O)O)cc1[N+](=O)[O-]`, the max response, negative = inhibition is inactive: -15.8%.
Turning to `Nc1ccccc1[As](=O)(O)c1ccccc1`, the max response, negative = inhibition is inactive: 1.04%.
Regarding `NC(=O)Nc1ccc([As](=O)(O)O)cc1`, the max response, negative = inhibition is inactive: -4.13%.
For the compound `CN(C(=O)Cc1ccc(Cl)c(Cl)c1)[C@H]1CC[C@@]2(CCCO2)C[C@@H]1N1CCCC1`, the max response, negative = inhibition is inactive: 0.0569%.
For the compound `O=[N+]([O-])c1ccc2c(c1)nnn2O`, the max response, negative = inhibition is inactive: -7.86%.
With `CN(C)C(=O)c1cc([N+](=O)[O-])cc2c1-c1c(cc([N+](=O)[O-])cc1[N+](=O)[O-])C2=O`, the Potency was active: 29.9 µM.
